Earlier results in patent publication US11260118B2, “Immunogenic peptide composition” (Cancer Research Malaysia, priority 2017, dated 2022).

System: HNSCC
Conditions: combination of chemotherapy with cetuximab; cited from earlier work

cetuximab
improvement of median overall survival duration versus chemotherapy only: 2.6 months
